What was measured:
Format in all cases: cell-based
hROMK1 (Kir1.1) = hROMK1 (Kir1.1) (Homo sapiens (Human), UniProt P48048); experiment: 86Rb+ Efflux Assay; details: CHO-DHFR- cells stably expressing hROMK1; 35 min incubation
hROMK (hKir1.1) = hROMK (hKir1.1) (Homo sapiens (Human), UniProt P48048); experiment: Thallium Flux Assay; details: HEK293 cells stably expressing hROMK; FLIPR-Tetra, 30 min incubation
Kir1.1 (ROMK1) = Kir1.1 (ROMK1) (Homo sapiens (Human), UniProt P48048); experiment: ROMK Electrophysiology Assay (IonWorks Quattro whole cell voltage clamp); details: Chinese hamster ovary cells stably expressing Kir1.1; block at voltage step to 0 mV, 6 min compound incubation

Chains of the proteins cited; added tags and fusions are not shown.
UniProt P48048, whole entry, species assumed: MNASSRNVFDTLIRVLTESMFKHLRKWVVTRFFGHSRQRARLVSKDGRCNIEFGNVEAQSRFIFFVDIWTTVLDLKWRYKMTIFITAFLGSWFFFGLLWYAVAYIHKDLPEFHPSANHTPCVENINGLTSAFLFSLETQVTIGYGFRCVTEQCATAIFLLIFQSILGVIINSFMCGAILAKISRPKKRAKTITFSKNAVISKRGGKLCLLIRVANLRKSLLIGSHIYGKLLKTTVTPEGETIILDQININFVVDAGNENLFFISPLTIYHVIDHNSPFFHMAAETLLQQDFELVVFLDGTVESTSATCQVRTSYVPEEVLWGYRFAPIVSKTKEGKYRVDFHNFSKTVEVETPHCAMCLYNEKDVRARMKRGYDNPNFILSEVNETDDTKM

IC50 (hROMK1 (Kir1.1))	IC50 (hROMK (hKir1.1))	IC50 (Kir1.1 (ROMK1))	SMILES
68 nM	6 nM		Cc1c([C@@H](O)CN2CCN(C[C@H](O)c3ccc4c(c3C)COC4=O)CC2)ccc2c1COC2=O [Example 2A, 5,5′-{piperazine-1,4-diylbis[(1R)-1-hydroxyethane-2,1-diyl]}bis(4-methyl-2-benzofuran-1 (3H)-one)]
171 nM	29 nM	12 nM	Cc1c([C@H](O)CN2CCN(C[C@@H](O)c3ccc4c(c3C)COC4=O)CC2)ccc2c1COC2=O [Example 2B, 5,5′-{piperazine-1,4-diylbis[(1S)-1-hydroxyethane-2,1-diyl]} bis(4-methyl-2-benzofuran-1 (3H)-one)]
107 nM	11 nM	10 nM	Cc1c([C@H](O)CN2CCN(C[C@H](O)c3ccc4c(c3C)COC4=O)CC2)ccc2c1COC2=O [Example 2C, 5-((1R)-1-hydroxy-2-{4-[(2S)-2-hydroxy-2-(4-methyl-1-oxo-1,3-dihydro-2-benzofuran-5-yl)ethyl]piperazin-1-yl}ethyl)-4-methyl-2-benzofuran-1(3H)-one]
